Test results published in article PMC5045767 (Bioorganic & medicinal chemistry, 2016).

Key:
[1] = test system: murine red blood cells (mRBCs); assay: hemolytic assay; settings: compared to ebselen / among ebsulfur analogues tested
[2] = MIC broth double-dilution assay with the inoculum size of the time-kill assays; assay type: cell-based; settings: inoculum 1×10^6 CFU/mL

With `O=c1c2ccccc2sn1-c1ccccc1` [2a, 2-phenyl-1,2-benzisothiazol-3(2H)-one] the “hemolytic activity, comparison” value [1] was “less hemolytic when compared to ebselen” and the “MIC values with time-kill inoculum size compared with standard MIC” value [2] was “remained identical”.
